## Antibody variant affinities, Ab-14 light chain, assay 1

Source: Engelhart et al. 2022 (doi:10.1038/s41597-022-01779-4), MIT Lincoln Laboratory and A-Alpha Bio; data file from the FLAb repository.

All variants were tested on one target, the spike HR2 peptide PDVDLGDISGINAS (SARS-CoV-2).

Parent: Ab-14, a human scFv built as VH, a (GGGGS)3 linker, VL. Only the CDRs of the light chain vary.
VH: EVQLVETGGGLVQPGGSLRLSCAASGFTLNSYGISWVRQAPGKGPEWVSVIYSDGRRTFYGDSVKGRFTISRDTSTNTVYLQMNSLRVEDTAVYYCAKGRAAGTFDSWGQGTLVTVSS
VL: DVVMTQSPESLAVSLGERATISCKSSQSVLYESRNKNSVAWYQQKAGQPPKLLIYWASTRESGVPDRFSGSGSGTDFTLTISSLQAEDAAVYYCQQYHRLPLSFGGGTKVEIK

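Library AAYL50 holds single substitutions and randomly drawn double and triple substitutions in the CDRs. The assay is AlphaSeq: two haploid yeast populations carry antibody and antigen on their surface. Mating (16 h, 30 °C) was followed by selection of diploids and sequencing of their barcodes. A regression on co-assayed BCL2-family reference pairs converts the normalised counts of each replicate to an apparent Kd. The assay was run in three technical replicates.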

Positions count from residue 1 of the parent VL; V29W puts W in place of V.
All variants listed here change W56 of the VL, counted from its first residue.
Kd is apparent (estimated from mating counts) and averaged on the log scale over replicates with a signal. Smaller is tighter.
"nd" means that the variant was in the library but no mating with the target was seen in any replicate; the authors take this as a sign of poor binding, and no number exists.
Background: pairings of library AAYL50 with three empty control strains gave a value in 18% of cases (median 15 µM, 5th percentile 970 nM). Values in that range, when seen in few replicates, are hard to tell from nonspecific mating.

* V29W/W56G = 260 pM (3 of 3 replicates)
* K36F/W56Q/S103R = 2.8 nM (3 of 3 replicates)
* S28G/R34S/W56M = 5.3 nM (3 of 3 replicates)
* W56Q/Q96I/R99F = 7.5 nM (3 of 3 replicates)
* K24Y/W56S = 3.1 nM (3 of 3 replicates)
* W56G/Q96T = 380 pM (3 of 3 replicates)
* K24L/S28E/W56N = 2.1 µM (1 of 3 replicates)
* Y31E/W56P/R60K = nd (0 of 3 replicates)
* W56H/A57N/Q96H = nd (0 of 3 replicates)
* R34I/W56I = nd (0 of 3 replicates)
* L30R/W56F/H98K = 240 nM (1 of 3 replicates)
* S28E/R34A/W56F = 110 µM (3 of 3 replicates)
* W56E/R60Y = 16 nM (3 of 3 replicates)
* W56L/R60P/H98S = 830 nM (3 of 3 replicates)
* W56V = 100 µM (1 of 3 replicates)
* V39A/W56I/H98F = nd (0 of 3 replicates)
* S25R/S33F/W56S = 2.4 nM (3 of 3 replicates)
* W56P/A57I/L102E = nd (0 of 3 replicates)
* R34V/W56K/Q95C = 510 nM (3 of 3 replicates)
* S25Y/W56S/E61W = 91 nM (3 of 3 replicates)
* S26I/W56I/E61S = nd (0 of 3 replicates)
* S38H/W56D/R99W = 3.1 nM (3 of 3 replicates)
* L30V/W56I/T59Q = nd (0 of 3 replicates)
* W56T = 8.7 nM (3 of 3 replicates)
* V29K/W56E/S58K = 1.7 nM (3 of 3 replicates)
* W56S/R60V/E61Y = 5.3 nM (3 of 3 replicates)
* N37R/W56G/Q96P = 7.1 µM (3 of 3 replicates)
* N37H/W56N = 2.7 nM (3 of 3 replicates)
* W56F/A57W = nd (0 of 3 replicates)
* N37K/W56A/L100H = 5.4 nM (3 of 3 replicates)
* A40I/W56A/L100F = 7.9 µM (2 of 3 replicates)
* V29F/W56I/Q96S = 4.7 µM (1 of 3 replicates)
* Q27P/W56H/A57W = 1.2 µM (2 of 3 replicates)
* W56A/S58G/T59M = 1.1 nM (3 of 3 replicates)
* V39D/W56L/Q95E = 140 µM (2 of 3 replicates)
* W56N/S62R/L100F = 28 nM (3 of 3 replicates)

Picked from the list: the 3 lowest averages where every replicate gave a value.

{"changes": "V29W/W56G", "Kd": "260 pM", "seen in": "3/3"}
{"changes": "W56G/Q96T", "Kd": "380 pM", "seen in": "3/3"}
{"changes": "W56A/S58G/T59M", "Kd": "1.1 nM", "seen in": "3/3"}

Parent in this assay: reference entry 4.4 nM, copy in this library 48 nM.